{"source": "paper PMC10108397", "about": "(ACS Medicinal Chemistry Letters, 2023)", "key": {"[1]": {"system": "phospho-AKT (Ser129)", "assay": "Western blot analyses of pAKT and AKT in MDA-MB-231 cells", "format": "cell-based", "details": "24 h exposure"}, "[2]": {"system": "AMO-1 and L363 cell lines", "assay": "cells", "details": "Homo sapiens, 120 h, read-out: viability of the AMO-1 and L363 cells"}, "[3]": {"system": "MDA-MB-231 cells", "assay": "MDA-MB-231 cell viability assay", "details": "48 h, up to 10 μM"}}}
{"smiles": "CCC(=O)Nc1cc(Nc2cc(NC3CC3)n3ncc(C#N)c3n2)ccc1C", "note": "[SGC-CK2-1]", "values": [{"measurement": "AKT phosphorylation", "setting": "[1]", "value": "dose-dependent inhibition of AKT phosphorylation"}, {"measurement": "total AKT expression", "setting": "[1]", "value": "no impact on total AKT expression"}, {"measurement": "viability at 1 µM", "setting": "[2]", "value": "9 to 22", "unit": "%"}, {"measurement": "cytotoxicity", "setting": "[3]", "value": "neither compound 2 nor SGC-CK2-1 exhibited significant cytotoxicity"}]}
